Patent US12509453B2, “BRM/BRG1 inhibitors and uses thereof” (Foghorn Therapeutics Inc., priority 2019, dated 2025)

The chains behind the UniProt entries cited, without tags or fusion partners.
UniProt P51532, whole entry: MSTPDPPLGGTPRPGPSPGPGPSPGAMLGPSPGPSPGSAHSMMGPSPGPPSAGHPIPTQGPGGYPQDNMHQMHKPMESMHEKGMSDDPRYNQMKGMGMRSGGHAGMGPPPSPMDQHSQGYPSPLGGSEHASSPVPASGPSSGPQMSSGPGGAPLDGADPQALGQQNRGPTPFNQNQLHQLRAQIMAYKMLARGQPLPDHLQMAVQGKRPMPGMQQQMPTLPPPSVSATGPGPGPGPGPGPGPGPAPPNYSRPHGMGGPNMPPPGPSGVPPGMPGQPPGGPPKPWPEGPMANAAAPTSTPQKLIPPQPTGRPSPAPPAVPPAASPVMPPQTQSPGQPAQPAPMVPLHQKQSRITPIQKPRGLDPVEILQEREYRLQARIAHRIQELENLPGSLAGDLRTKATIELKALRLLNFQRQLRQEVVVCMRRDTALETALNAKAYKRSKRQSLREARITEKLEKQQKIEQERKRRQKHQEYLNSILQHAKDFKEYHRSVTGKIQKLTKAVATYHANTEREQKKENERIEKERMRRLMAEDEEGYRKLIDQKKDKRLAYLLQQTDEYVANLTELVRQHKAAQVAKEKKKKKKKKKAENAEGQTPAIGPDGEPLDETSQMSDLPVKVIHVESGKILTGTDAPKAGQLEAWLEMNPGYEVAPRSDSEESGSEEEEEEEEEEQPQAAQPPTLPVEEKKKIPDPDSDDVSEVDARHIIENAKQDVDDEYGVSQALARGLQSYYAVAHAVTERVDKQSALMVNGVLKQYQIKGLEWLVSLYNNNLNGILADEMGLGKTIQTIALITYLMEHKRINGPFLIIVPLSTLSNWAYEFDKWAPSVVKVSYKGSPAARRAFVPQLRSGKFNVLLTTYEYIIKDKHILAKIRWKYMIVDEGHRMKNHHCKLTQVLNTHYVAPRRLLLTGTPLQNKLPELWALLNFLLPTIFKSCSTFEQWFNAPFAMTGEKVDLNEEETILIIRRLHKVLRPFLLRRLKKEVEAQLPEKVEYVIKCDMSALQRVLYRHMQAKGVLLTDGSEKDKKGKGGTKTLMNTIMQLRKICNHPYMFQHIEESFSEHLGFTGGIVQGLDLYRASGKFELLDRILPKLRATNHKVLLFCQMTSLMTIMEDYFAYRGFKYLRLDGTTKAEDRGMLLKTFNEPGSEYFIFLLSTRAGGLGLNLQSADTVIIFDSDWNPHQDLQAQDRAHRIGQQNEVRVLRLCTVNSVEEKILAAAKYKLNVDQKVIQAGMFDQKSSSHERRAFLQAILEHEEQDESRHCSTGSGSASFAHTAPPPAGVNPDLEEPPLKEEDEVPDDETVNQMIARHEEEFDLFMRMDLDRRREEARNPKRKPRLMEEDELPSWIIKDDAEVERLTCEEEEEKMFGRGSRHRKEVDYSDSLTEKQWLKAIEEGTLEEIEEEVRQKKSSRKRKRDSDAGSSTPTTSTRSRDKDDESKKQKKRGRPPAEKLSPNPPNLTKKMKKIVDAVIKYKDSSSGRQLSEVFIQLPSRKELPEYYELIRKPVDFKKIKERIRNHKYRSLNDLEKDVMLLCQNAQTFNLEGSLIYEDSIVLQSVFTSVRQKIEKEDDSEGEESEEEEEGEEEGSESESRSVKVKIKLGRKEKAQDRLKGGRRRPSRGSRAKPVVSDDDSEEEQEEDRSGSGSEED

Assays:
[1] = tested on: Uveal melanoma cell lines, 92-1 or MP41; assay: Comparison of BRG1/BRM inhibitor to clinical PKC and MEK inhibitors in uveal melanoma cell lines (Cell-titer glo, 3 days); format: cell-based; conditions: 0 to 10 micromolar
Protocol: Procedure: Uveal melanoma cell lines, 92-1 or MP41, were plated in 96 well plates in the presence of growth media (See Table 7). […] Cells were incubated at 37 degrees Celsius for 3 days. After three days of treatment, cell growth was measured with Cell-titer glow (Promega), and luminescence was read on an Envision plate reader (Perkin Elmer).

BRG-1 = target: T1, BRG-1 (Homo sapiens, UniProt P51532); assay: ATPase catalytic activity assay (ADP-Glo), BRG-1; format: biochemical; conditions: read-out: BRG1 Max % Inhibition
T1 construct: made in house; host or cells: High Five insect cells
Protocol: The ATPase catalytic activity of BRM or BRG-1 was measured by the in vitro biochemical assay using ADP-Glo™ (Promega, V9102). The ADP-Glo™ kinase assay is performed in two steps once the reaction is complete. The first step is to deplete any unconsumed ATP in the reaction. The second step is to convert the reaction product ADP to ATP, which will be utilized by the luciferase to generate luminesce and be detected by a luminescence reader, such as Envision.
The assay reaction mixture (10 μL) contains 30 nM of BRM or BRG-1, 20 nM salmon sperm DNA (from Invitrogen, UltraPure™ Salmon Sperm DNA Solution, cat #15632011), and 400 μM of ATP in the ATPase assay buffer, which comprises of 20 mM Tris, pH 8, 20 mM MgCl2, 50 mM NaCl, 0.1% Tween-20, and 1 mM fresh DTT (Pierce™ DTT (Dithiothreitol), cat #20290). The reaction is initiated by the addition of the 2.5 μL ATPase solution to 2.5 μL ATP/DNA solution on low volume white Proxiplate-384 plus plate (PerkinElmer,cat #6008280) and incubates at room temperature for 1 hour. […] Finally, luminescence measurement is collected with a plate-reading luminometer, such as Envision.
The ADP-Glo™ kinase assay is performed in two steps once the reaction is complete. […] The second step is to convert the reaction product ADP to ATP, which will be utilized by the luciferase to generate luminesce and be detected by a luminescence reader, such as Envision. […]

Compound	Onset of inhibition relative to clinical PKC and MEK inhibitors [1]	Growth inhibition of uveal melanoma cells relative to clinical PKC (LXS196) and MEK (Selumetinib) inhibitors, FIG. 2 ([1]; 3 days)	Emax (BRG-1) [%]
CSCC[C@H](NC(=O)c1ccc(N)cc1)C(=O)Nc1nc(-c2cccc(-c3ccncc3)c2)cs1 [Compound A]	faster onset of inhibition	comparable growth inhibition	
CC(C)S(=O)(=O)n1cc(C(=O)NCC(=O)Nc2nc(-c3cccc(-c4ccncc4)c3)cs2)c2ccccc21 [Compound 4, 1-(isopropylsulfonyl)-N-(2-oxo-2-((4-(3-(pyridin-4-yl)phenyl)thiazol-2-yl)amino)ethyl)-1H-indole-3-carboxamide]			< 30
